The experiment concerns the target Histone deacetylase (Homo sapiens) (UniProt Q13547+O15379+Q9UBN7+Q92769+Q9UQL6+Q8WUI4+Q9BY41+Q96DB2+P56524+Q9UKV0+Q969S8). The following applies: HeLa, at 100 µM.

The chains behind the UniProt entries cited, without tags or fusion partners. Where a name states a change or a piece, a line headed by the entry shows the natural chain unless it says otherwise.
UniProt Q13547: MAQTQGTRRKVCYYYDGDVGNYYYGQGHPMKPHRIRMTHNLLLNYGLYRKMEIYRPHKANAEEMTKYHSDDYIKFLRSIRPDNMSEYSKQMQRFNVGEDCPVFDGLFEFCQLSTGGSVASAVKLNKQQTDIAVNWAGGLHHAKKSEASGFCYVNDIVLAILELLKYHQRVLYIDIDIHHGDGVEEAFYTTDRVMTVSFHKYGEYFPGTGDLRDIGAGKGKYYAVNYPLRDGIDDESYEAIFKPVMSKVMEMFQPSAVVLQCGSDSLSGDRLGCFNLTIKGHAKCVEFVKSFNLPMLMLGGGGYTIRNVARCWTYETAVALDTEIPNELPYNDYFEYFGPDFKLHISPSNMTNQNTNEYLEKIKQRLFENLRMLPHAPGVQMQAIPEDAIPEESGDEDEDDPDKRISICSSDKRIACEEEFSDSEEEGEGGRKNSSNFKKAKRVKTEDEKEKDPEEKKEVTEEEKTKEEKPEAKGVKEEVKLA
UniProt O15379: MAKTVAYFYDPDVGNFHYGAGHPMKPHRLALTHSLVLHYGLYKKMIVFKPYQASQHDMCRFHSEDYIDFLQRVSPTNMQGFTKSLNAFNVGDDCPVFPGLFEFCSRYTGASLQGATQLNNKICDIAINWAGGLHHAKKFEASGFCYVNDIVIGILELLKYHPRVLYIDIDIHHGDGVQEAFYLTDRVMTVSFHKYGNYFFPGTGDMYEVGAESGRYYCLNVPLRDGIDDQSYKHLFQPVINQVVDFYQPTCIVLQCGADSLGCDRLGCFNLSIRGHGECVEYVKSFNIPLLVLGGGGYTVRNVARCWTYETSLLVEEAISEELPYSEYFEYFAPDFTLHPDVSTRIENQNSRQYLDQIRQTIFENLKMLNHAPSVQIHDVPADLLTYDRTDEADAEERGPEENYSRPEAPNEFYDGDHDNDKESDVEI
UniProt Q92769: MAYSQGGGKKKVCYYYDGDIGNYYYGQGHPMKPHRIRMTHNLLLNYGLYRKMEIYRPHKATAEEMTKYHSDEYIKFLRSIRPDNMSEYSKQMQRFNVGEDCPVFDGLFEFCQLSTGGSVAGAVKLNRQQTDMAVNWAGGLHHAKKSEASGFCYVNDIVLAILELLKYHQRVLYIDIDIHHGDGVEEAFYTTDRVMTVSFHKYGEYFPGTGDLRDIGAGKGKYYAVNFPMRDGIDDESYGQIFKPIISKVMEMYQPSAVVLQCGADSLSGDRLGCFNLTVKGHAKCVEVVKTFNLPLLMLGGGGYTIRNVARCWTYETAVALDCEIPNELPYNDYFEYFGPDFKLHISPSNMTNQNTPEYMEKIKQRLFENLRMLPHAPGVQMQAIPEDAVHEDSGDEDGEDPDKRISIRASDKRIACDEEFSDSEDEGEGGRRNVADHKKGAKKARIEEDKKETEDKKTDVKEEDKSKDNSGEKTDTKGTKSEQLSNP
UniProt Q9UQL6: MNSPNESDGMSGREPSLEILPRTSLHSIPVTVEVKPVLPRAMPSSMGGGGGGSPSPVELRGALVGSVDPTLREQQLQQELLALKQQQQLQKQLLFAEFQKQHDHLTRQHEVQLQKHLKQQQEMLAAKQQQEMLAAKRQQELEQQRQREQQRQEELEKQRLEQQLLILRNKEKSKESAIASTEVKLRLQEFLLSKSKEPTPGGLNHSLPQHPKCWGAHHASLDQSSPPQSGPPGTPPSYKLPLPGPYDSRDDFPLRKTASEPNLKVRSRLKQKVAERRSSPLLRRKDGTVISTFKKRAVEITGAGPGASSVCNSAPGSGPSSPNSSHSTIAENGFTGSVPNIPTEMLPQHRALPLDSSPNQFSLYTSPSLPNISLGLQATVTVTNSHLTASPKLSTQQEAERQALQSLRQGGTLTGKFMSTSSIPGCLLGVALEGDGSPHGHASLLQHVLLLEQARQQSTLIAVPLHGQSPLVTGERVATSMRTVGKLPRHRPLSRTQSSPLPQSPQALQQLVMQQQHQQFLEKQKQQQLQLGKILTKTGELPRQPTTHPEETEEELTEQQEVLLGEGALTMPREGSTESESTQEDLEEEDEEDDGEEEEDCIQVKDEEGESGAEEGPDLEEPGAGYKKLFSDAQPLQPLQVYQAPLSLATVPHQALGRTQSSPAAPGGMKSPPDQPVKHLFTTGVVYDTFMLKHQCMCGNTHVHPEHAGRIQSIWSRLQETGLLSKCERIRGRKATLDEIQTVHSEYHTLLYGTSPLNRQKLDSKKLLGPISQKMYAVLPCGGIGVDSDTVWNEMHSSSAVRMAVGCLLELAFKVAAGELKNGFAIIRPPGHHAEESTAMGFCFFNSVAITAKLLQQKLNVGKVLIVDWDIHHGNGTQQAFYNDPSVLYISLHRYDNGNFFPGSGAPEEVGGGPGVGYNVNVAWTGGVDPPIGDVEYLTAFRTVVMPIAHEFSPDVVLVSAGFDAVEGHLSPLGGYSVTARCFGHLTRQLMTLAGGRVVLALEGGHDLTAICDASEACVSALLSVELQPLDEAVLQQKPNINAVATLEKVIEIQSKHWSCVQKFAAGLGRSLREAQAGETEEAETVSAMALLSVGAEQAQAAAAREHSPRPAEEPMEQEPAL
UniProt Q8WUI4: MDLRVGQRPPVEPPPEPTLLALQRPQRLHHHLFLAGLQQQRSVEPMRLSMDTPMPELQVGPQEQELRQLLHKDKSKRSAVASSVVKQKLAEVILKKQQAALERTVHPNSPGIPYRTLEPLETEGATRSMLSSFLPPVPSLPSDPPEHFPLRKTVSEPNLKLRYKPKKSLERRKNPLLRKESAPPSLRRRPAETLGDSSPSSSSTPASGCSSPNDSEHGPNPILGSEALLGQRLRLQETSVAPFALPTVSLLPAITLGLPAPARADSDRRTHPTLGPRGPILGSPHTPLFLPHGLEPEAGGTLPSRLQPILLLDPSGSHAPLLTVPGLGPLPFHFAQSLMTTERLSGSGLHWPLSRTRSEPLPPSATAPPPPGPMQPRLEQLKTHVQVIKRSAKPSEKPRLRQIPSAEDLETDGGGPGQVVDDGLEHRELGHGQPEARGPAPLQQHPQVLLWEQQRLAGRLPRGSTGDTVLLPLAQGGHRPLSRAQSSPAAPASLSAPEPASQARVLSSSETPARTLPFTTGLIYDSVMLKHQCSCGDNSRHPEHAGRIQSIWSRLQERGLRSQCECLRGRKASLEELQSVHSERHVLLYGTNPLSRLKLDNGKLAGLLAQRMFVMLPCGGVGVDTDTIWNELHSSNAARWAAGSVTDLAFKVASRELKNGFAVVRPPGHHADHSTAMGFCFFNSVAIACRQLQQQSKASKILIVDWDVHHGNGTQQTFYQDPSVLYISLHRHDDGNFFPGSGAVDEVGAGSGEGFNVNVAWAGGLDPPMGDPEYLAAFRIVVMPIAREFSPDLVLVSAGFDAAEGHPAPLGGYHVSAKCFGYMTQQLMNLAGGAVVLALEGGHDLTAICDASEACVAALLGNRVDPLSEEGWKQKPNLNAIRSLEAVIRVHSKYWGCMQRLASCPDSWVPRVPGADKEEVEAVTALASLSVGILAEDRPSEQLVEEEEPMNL
UniProt Q9BY41: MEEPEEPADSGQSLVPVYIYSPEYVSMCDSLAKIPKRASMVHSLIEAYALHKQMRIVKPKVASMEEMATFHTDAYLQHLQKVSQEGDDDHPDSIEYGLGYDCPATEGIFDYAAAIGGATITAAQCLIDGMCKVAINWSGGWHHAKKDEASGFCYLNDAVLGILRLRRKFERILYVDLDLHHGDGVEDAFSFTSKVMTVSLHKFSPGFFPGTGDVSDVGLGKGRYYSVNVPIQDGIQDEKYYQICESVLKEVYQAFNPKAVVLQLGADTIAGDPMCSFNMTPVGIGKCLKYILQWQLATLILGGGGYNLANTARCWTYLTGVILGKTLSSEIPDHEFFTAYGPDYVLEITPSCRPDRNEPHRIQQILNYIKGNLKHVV
UniProt Q96DB2: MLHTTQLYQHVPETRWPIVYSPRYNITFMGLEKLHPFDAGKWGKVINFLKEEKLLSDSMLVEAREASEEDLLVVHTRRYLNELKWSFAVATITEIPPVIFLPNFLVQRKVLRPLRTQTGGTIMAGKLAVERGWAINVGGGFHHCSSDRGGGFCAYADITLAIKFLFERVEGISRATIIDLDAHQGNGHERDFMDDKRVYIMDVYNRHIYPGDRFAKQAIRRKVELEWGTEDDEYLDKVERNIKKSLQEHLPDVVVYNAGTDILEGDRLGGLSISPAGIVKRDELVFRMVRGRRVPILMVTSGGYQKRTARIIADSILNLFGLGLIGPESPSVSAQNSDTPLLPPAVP
UniProt P56524: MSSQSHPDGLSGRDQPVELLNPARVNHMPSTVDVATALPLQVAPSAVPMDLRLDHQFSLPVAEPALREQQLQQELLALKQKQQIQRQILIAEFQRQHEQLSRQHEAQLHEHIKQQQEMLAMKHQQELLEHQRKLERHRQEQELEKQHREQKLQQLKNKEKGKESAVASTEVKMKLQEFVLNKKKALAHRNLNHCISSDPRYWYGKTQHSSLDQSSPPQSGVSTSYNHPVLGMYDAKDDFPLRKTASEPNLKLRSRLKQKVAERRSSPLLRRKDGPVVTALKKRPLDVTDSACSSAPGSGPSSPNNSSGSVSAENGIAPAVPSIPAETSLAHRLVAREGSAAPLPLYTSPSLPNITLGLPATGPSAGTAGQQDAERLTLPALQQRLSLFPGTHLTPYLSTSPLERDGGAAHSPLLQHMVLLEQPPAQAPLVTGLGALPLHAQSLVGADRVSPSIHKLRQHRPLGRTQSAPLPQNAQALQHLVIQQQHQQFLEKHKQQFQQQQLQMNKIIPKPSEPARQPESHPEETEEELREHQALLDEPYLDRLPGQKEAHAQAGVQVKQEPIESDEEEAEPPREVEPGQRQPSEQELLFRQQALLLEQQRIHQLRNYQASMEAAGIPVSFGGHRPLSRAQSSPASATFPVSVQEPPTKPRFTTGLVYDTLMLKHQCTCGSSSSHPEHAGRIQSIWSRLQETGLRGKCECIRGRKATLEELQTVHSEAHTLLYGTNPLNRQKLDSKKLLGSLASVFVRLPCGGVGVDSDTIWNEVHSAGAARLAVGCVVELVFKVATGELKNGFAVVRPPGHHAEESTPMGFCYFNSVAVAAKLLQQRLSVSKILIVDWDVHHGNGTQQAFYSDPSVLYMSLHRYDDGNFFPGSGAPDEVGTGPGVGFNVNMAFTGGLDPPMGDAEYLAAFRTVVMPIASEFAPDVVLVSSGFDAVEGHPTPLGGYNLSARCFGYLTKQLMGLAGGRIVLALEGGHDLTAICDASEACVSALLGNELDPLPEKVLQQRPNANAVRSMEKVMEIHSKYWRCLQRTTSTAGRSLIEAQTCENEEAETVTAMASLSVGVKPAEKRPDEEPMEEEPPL
UniProt Q9UKV0: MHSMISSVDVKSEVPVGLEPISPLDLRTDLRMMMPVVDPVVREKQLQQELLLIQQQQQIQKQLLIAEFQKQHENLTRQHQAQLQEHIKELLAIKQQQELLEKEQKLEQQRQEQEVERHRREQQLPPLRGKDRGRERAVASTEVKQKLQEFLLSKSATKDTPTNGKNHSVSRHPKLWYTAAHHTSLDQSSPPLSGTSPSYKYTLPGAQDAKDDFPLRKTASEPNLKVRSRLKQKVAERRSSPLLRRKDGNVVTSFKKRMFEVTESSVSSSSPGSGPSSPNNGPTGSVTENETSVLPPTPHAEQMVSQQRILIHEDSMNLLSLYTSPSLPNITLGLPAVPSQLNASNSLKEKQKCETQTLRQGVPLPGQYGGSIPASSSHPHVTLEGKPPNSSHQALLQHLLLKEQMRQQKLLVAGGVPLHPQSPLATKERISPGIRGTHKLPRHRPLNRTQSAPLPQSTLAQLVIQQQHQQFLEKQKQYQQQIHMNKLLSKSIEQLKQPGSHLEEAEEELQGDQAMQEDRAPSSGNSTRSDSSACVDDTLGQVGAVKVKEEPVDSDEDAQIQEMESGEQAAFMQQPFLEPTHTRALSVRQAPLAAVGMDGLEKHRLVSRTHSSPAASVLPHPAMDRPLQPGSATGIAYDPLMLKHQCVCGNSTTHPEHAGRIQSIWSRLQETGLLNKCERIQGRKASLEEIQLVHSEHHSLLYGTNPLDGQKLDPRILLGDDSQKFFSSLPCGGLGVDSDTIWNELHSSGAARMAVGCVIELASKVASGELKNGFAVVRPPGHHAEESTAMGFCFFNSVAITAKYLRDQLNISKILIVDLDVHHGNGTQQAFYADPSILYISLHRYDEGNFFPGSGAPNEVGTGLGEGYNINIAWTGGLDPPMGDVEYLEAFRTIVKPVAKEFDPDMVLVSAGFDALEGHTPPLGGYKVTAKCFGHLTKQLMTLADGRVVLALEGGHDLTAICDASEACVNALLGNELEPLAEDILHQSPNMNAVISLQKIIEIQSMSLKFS

This note sets out measurements from ChEMBL document CHEMBL1142831, “Identification of a potent non-hydroxamate histone deacetylase inhibitor by mechanism-based drug design” (Bioorg Med Chem Lett, 2005).

In the case of `O=C(CO)NCCCCCC(=O)Nc1ccccc1`, the inhibition was found to be 0%.

Regarding `NCC(=O)NCCCCCC(=O)Nc1ccccc1`, the inhibition was found to be 6%.
